Molecular target: T1, DPP-IV from pig kidney (Sus scrofa, UniProt P22411)
T1 construct: The enzyme used is DPP-IV from pig kidney; purchased Sigma D7052; host or cells: pig kidney
Test: In-vitro determination of the inhibition of DPP-IV by synthetic peptides (Example 14)
Type: biochemical
Conditions: Table 13; substrate Gly-L-Pro-p-nitroanilide, pH 8.0, 37° C.; read-out: inhibitory activity of DPP-IV (IC50)
Experimental: The inhibitory activity of synthetic peptides can be measured in vitro according to the following protocol:
25 μl of the substrate Gly-L-Pro-p-nitroanilide in 0.1 M Tris-HCL buffer (pH 8.0) at 1.6 mM is mixed with 25 μl of the peptide sample or of reference inhibitor at different concentrations. The samples are solubilized beforehand in Tris HCL buffer (pH8.0).
The reaction medium is incubated for 60 min at 37° C. and then the reaction is stopped by adding 100 μl of 1M sodium acetate buffer (pH4).
The quantity of product formed (p-nitroanilide) is measured by reading the absorbance at 385 nm using the Fluostar Omega spectrophotometer (BMG Labtech, Germany).
All the inhibition tests are carried out in triplicate.
The substrate used is Gly-L-Pro-p-nitroanilide hydrochloride (available from Sigma under reference G0513).
The enzyme used is DPP-IV from pig kidney (available from Sigma under reference D7052).
The reference inhibitor is Diprotin A, corresponding to the Ile-Pro-Ile tripeptide (available from Sigma under reference 19759).

The chains behind the UniProt entries cited, without tags or fusion partners. Where a name states a change or a piece, a line headed by the entry shows the natural chain unless it says otherwise.
UniProt P22411: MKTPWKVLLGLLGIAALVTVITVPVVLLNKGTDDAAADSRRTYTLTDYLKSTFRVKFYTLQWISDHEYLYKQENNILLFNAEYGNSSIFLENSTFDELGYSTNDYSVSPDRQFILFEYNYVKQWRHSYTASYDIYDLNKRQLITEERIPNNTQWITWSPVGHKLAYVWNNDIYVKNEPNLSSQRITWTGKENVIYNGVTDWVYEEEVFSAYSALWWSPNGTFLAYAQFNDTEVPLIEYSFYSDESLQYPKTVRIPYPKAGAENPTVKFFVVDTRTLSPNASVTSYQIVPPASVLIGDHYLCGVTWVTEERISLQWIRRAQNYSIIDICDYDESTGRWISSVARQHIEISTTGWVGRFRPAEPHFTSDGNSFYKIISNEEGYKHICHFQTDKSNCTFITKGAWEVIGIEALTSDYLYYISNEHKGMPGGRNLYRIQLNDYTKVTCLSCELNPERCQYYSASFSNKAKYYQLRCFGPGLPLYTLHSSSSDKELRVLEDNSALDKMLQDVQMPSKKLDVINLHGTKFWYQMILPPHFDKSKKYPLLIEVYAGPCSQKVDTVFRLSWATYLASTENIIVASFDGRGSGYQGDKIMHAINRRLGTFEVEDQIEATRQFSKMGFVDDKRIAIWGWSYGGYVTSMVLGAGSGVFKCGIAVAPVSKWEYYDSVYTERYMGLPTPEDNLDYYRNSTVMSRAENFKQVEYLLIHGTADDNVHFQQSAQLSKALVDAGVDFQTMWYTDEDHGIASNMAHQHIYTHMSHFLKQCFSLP

- IC50: 12.1 ± 0.2 µM
SMILES: CC[C@H](C)[C@H](N)C(=O)N1CCC[C@H]1C(=O)N[C@H](C(=O)O)[C@@H](C)CC [Diprotin A (IPI), Ile-Pro-Ile, reference compound]

Source: patent US10500245B2, “Compositions for preventing and/or treating pathological conditions associated with alpha-glucosidase” (UNIVERSITE DE LA ROCHELLE, priority 2014, dated 2019)
